# Values quoted from earlier work as cited in US12599665B2, “Gene fusions for control of genetically modified cells” (A2 Biotherapeutics, Inc., priority 2020, dated 2026).
# Protein sequences, listed by entry. Tags and fused reporters are not part of them.
# UniProt P03372, whole entry: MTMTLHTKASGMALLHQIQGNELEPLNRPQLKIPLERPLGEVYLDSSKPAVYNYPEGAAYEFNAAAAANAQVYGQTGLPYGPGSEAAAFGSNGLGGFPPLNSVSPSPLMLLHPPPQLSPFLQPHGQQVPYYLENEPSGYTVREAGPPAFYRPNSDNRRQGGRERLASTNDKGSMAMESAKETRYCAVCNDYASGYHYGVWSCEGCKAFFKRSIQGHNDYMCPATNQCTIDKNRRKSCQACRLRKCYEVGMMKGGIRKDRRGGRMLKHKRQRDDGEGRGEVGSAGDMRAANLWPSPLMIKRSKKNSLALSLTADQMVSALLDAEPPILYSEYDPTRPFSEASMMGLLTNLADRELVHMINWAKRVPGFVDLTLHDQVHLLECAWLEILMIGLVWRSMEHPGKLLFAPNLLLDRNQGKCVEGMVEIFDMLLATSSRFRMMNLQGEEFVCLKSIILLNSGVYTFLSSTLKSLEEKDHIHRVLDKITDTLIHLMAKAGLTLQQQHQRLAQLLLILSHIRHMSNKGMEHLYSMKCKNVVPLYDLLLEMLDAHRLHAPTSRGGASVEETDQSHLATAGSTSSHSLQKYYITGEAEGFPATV
# Molecular target: Estrogen receptor-α (NR3A1) (Homo sapiens, UniProt P03372)
# Settings: antagonist, Table 2; cited from earlier work
substance,measurement,value
methyl-piperidino-pyrazole,pKi,8.6)
